Assay results reported in patent US20250214932A1, “T-TYPE CALCIUM CHANNEL MODULATORS COMPRISING AN AZASPIRONONANE CORE AND METHODS OF USE THEREOF” (Praxis Precision Medicines, Inc., priority 2022, published 2025).
Where two headings read alike, the source gives them in different places.

Chains of the proteins cited; added tags and fusions are not shown.
UniProt O43497, whole entry: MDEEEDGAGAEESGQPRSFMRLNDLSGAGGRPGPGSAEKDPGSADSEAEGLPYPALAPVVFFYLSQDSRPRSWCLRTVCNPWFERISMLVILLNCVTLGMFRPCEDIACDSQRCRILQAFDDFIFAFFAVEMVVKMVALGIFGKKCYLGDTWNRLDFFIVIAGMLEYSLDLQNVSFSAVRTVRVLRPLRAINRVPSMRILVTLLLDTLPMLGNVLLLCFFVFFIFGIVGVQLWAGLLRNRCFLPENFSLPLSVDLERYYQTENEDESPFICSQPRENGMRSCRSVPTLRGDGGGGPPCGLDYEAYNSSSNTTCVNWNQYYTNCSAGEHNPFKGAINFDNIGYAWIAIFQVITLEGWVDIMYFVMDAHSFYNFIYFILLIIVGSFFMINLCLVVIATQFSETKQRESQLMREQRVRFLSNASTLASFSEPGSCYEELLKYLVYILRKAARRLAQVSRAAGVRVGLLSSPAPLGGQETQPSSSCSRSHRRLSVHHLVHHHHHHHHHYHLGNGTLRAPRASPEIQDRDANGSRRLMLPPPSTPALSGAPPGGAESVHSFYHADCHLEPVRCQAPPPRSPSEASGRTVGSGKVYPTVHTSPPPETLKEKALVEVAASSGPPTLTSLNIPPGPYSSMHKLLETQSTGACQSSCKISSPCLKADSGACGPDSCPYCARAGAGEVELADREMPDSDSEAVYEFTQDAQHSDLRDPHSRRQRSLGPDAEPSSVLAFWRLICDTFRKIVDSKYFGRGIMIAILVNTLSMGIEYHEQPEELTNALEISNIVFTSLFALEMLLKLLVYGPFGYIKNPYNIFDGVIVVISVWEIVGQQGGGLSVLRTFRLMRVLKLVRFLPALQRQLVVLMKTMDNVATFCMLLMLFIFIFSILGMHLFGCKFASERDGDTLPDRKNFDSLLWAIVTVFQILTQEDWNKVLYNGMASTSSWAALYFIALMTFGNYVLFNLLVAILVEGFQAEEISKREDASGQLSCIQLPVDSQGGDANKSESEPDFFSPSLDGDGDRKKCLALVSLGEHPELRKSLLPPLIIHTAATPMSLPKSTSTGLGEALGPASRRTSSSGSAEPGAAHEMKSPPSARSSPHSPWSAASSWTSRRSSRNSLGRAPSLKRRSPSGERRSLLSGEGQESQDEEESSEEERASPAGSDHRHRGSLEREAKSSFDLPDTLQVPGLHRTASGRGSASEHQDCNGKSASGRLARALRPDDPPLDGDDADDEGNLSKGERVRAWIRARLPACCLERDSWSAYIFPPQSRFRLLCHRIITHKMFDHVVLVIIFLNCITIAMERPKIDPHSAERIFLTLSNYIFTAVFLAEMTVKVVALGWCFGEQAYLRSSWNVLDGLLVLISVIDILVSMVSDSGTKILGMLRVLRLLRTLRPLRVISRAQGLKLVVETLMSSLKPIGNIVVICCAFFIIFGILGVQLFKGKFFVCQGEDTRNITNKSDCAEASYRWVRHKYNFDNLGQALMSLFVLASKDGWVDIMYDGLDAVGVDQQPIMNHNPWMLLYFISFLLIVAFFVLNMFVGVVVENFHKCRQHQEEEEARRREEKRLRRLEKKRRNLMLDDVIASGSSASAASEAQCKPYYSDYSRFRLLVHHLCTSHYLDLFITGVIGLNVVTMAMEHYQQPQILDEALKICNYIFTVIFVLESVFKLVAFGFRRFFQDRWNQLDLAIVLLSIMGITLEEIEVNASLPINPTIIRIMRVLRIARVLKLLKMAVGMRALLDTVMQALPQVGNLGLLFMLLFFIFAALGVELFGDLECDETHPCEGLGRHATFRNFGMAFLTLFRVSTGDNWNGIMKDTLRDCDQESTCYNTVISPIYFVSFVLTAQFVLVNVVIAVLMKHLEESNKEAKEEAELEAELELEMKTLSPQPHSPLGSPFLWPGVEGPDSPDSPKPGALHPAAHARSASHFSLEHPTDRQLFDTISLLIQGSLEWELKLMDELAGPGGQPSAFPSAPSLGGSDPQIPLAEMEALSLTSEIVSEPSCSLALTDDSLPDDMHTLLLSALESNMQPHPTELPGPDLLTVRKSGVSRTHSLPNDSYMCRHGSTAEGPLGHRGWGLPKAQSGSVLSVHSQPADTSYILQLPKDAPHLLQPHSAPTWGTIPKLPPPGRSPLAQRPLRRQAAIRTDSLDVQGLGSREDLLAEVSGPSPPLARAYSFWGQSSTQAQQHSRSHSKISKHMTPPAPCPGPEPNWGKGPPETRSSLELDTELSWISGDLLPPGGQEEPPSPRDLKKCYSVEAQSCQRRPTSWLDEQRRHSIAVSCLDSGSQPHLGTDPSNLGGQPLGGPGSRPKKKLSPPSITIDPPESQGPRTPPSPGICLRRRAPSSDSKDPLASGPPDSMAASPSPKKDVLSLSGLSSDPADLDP

Biological target: Human Cav3.1 (Homo sapiens (Human), UniProt O43497)
Test: Human Cav3.1 calcium channel patch clamp assay (SyncroPatch 384PE, HEK-293 natClytin/TASK1+Cav3.1 cell line)

## CC(C)(C)NC(=O)CN1CC2(CCC(C(=O)Nc3ccc(F)c(Cl)c3)CC2)C1
Testing Conc. 1.25 (unit not given), human Cav3.1
  Single Point Data % Inhibition: 85.622%
read-out: Cav3.1 (VDB) IC50, voltage dependent block (VDB)
  IC50: 310 nM
read-out: Human Cav3.1 IC50, patch clamp, HEK-293 natClytin/TASK1+Cav3.1 cells, class symbols
  IC50: < 1000 nM
